In US20240059710A1, “KRAS G12D Inhibitors” (Jacobio Pharmaceuticals Co., Ltd., priority 2020, published 2024):
Where two headings read alike, the source gives them in different places.

Protein sequences, listed by entry. Tags and fused reporters are not part of them. Residues count along the entry.
UniProt P01116, 1-169 isoform 2 G12D limits assumed: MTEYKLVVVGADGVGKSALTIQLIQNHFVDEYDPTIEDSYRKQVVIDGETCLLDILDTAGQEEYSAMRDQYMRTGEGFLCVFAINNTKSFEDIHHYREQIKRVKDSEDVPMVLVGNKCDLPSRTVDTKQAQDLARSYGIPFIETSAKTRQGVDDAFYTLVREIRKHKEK

Tests used:
[1] = molecular target: GDP-loaded HIS-KRAS (G12D, aa 1-169) (Homo sapiens, UniProt P01116, G12D); assay: SOS1 catalyzed nucleotide exchange assay
Experimental: 1. SOS1 Catalyzed Nucleotide Exchange Assay
GDP-loaded HIS-KRAS (G12D, aa 1-169) was pre-incubated with a compound in the presence of 10 nM GDP in a 384-well plate (Greiner) for 15 min, then purified SOS1 ExD (Flag tag, aa 564-1049), BODIPY™ FL GTP (Invitrogen) and MAb (monoclonal antibody) Anti 6HIS-Tb cryptate Gold (Cisbio) were added to the assay wells (Final concentration: 1.5 nM GDP-loaded HIS-KRAS (G12D), 5 nM GDP, 0.5 μM SOS1 ExD, 80 nM BODIPY™ FL GTP, 52.5 ng/mL MAb Anti 6HIS-Tb cryptate Gold) and incubated for 4 hours at 25° C. Wells containing same percent of DMSO served as vehicle control, and wells without KRAS served as low control. TR-FRET signals were read on Tecan Spark multimode microplate reader. The parameters were F486: Excitation 340 nm, Emission 486 nm, Lag time 100 μs, Integration time 200 μs; F515: Excitation 340 nm, Emission 515 nm, Lag time 100 μs, Integration time 200 μs. TR-FRET ratios for each individual wells were calculated by equation: TR-FRET ratio=(Signal F515/Signal F486)*10000. The percent of activation of compounds treated wells were normalized between vehicle control and low control (% Activation=(TR-FRET ratioCompound treated−TR-FRET ratioLow control)/(TR-FRET ratioVehicle control−TR-FRET ratioLow control)*100%). Then the data were analyzed either by fitting a 4-parameter logistic model or by Excel to calculate IC50 values.

AsPC-1 = assay: Cell growth inhibition assay (AsPC-1); details: read-out: AsPC-1 Cell growth inhibition IC50, AsPC-1, 6 days incubation, CellTiter-Glo
Experimental: (§1) 4. Cell Growth Inhibition Assay
AsPC-1 cultured in RPMI-1640 medium (Gibco) containing 10% fetal bovine serum (Gibco). Cells in culture medium were plated in 96-well plates at a concentration of 1000 cells/well ([…]) and allowed to attach overnight.
(§2) The next day, compounds were diluted in culture medium and added to the plates. After 6 days incubation in a 37° C./5% CO2 cell incubator, the cell viability was detected by CellTiter-Glo® Luminescent Cell Viability Assay kit (Promega). Luminescent signals were read on Tecan Spark multimode microplate reader and analyzed using a 4-parameter logistic model to calculate IC50 values.

[2] = test system: AGS cells expressing KRAS G12D; assay: Phospho-ERK1/2(THR202/TYR204) HTRF assay
Experimental: AGS cells expressing KRAS G12D were cultured in F12K medium (Gibco) containing 10% fetal bovine serum (Gibco). The AGS cells in culture medium were seeded in 96-well plates at a concentration of 40,000 cells/well and then put in a 37° C./5% CO2 cell incubator to incubate overnight. The next day, culture medium was removed and the compound diluted in assay medium (F12K, 0.1% FBS) was added in each well. After 2 hours incubation in a 37° C./5% CO2 cell incubator, the assay medium in 96-well plates was removed, then 50 μL of 1× blocking reagent-supplemented lysis buffer (Cisbio) was added and the plates were incubated at 25° C. for 45 min with shaking. 10 μL of cell lysates from the 96-well plates were transferred to a 384-well plate (Greiner) containing 2.5 μL/well HTRF® pre-mixed antibodies (Cisbio 64AERPEH). Incubate 4 hours at 25° C. and then read HTRF signals on Tecan Spark multimode microplate reader. The data were analyzed using a 4-parameter logistic model to calculate IC50 values.

[3] = molecular target: GppNp-loaded HIS-KRAS (G12D, aa 1-169) / cRAF RBD (Homo sapiens, UniProt P01116, G12D); assay: GTP-KRAS and cRAF interaction assay
Experimental: 2. GTP-KRAS and cRAF Interaction Assay
GppNp-loaded HIS-KRAS (G12D, aa 1-169) was pre-incubated with a compound in the presence of 200 µM GTP in a 384-well plate (Greiner) for 15 min, then cRAF RBD (GST tag, aa 50-132, CreativeBioMart), MAb Anti GST-d2 (Cisbio) and MAb Anti 6HIS-Tb cryptate Gold (Cisbio) were added to the assay wells (Final concentration: 2.0 nM GppNp-loaded HIS-KRAS (G12D), 100 μM GTP, 35 nM cRAF RBD, 1 μg/mL MAb Anti GST-d2, 52.5 ng/mL MAb Anti 6HIS-Tb cryptate Gold) and incubated for 2 hours at 25° C. Wells containing same percent of DMSO served as vehicle control, and wells without KRAS served as low control. HTRF signals were read on Tecan Spark multimode microplate reader and HTRF ratios were calculated under manufacturer's instructions. The percent of activation of compounds treated wells were normalized between vehicle control and low control (% Activation=(HTRF ratioCompound treated−HTRF ratioLow control)/(HTRF ratioVehicle control−HTRF ratioLow control)*100). Then the data were analyzed either by fitting a 4-parameter logistic model or by Excel to calculate IC50 values.

AGS = assay: Cell growth inhibition assay (AGS)
Experimental: as §1
AGS cultured in F12K medium (Gibco) containing 10% fetal bovine serum (Gibco). Cells in culture medium were plated in 96-well plates at a concentration of 500 cells/well ([…]) and allowed to attach overnight.
as §2

[4] = read-out: Nucleotide exchange IC50, SOS1 ExD, TR-FRET, 4 hours at 25° C.
[5] = read-out: AGS p-ERK IC50, 2 hours incubation
[6] = read-out: GTP-KRAS/cRAF interaction IC50, HTRF, 2 hours at 25° C.
[7] = read-out: AGS Cell growth inhibition IC50, 6 days incubation, CellTiter-Glo
[8] = read-out: Nucleotide exchange IC50, SOS1 ExD, TR-FRET, 4 hours at 25° C., tested form: TFA
[9] = read-out: GTP-KRAS/cRAF interaction IC50, HTRF, 2 hours at 25° C., tested form: TFA
[10] = read-out: AGS Cell growth inhibition IC50, 6 days incubation, CellTiter-Glo, tested form: TFA
[11] = read-out: AGS p-ERK IC50, 2 hours incubation, tested form: TFA

| SMILES | IC50 [1, 4] [nM] | IC50 (AsPC-1) [nM] | IC50 [2, 5] [nM] | IC50 [3, 6] [nM] | IC50 (AGS; [7]) [nM] | IC50 [1, 8] [nM] | IC50 [3, 9] [nM] | IC50 (AsPC-1; tested form: TFA) [nM] | IC50 (AGS; [10]) [nM] | IC50 [2, 11] [nM] |
| --- | --- | --- | --- | --- | --- | --- | --- | --- | --- | --- |
| C#Cc1cccc2cc(O)cc(-c3c(F)cc4c(N5CC6CCC(C5)N6)nc(OCC5(CN6CCOCC6)CC5)nc4c3C)c12 (single isomer, unassigned) | 1.15 | 58 | 139 | 138 | 19.3 |  |  |  |  |  |
| C#Cc1cccc2cc(O)cc(-c3cc4nc(OCC5(CN6CCOCC6)CC5)nc(N5CC6CCC(C5)N6)c4cc3C3CC3)c12 |  |  |  |  |  | 66.8 | 220 |  |  |  |
| CSc1cccc2cc(O)cc(-c3ccc4c(N5CC6CCC(C5)N6)nc(OCC5(CN6CCOCC6)CC5)nc4c3F)c12 |  |  |  |  |  | 9.31 | 330 | 118 | 28.7 |  |
| C#Cc1cccc2cc(O)cc(-c3c(C#N)cc4c(N5CC6CCC(C5)N6)nc(OCC5(CN6CCOCC6)CC5)nc4c3F)c12 (single isomer, unassigned) |  |  |  |  |  | 26.8 | 89.4 |  | 24.6 | 7.85 |
| N#CCCc1cc2c(N3CC4CCC(C3)N4)nc(OCC3(CN4CCOCC4)CC3)nc2c(F)c1-c1cc(O)cc2ccccc12 |  |  |  |  |  | 5.05 | 353 |  | 79.2 |  |
| C#Cc1cccc2cc(O)cc(-c3ccc4c(N5CC6CCC(C5)N6)nc(OCC5(C(C)N6CCOCC6)CC5)nc4c3F)c12 (centres unmarked) |  |  |  |  |  | 6.86 | 347 |  |  | 49.5 |
| CN(C)CC1(COc2nc(N3CC4CCC(C3)N4)c3cc(Cl)c(-c4cc(O)cc5cccc(Cl)c45)c(F)c3n2)CC1 |  |  |  |  |  | 32.2 | 524 |  |  |  |
| C#Cc1cccc2cc(O)cc(-c3ccc4c(N5C6CCC5CNC6)nc(OCC5(CN6CCOCC6)CC5)nc4c3F)c12 |  |  |  |  |  | 14 | 269 | 80.3 | 103 |  |
| C#Cc1cccc2cc(O)cc(-c3cc(F)c4c(N5CC6CCC(C5)N6)nc(OCC5(CN6CCOCC6)CC5)nc4c3F)c12 |  |  |  |  |  | 11.1 |  | 61.2 | 21.6 | 16 |
| C#Cc1ccc(F)c2cc(O)cc(-c3ccc4c(N5CC6CCC(C5)N6)nc(OCC5(CN6CCOCC6)CC5)nc4c3F)c12 |  |  |  |  |  |  | 176 | 60.7 | 30.9 | 15.3 |
| C#Cc1c(C)ccc2cc(O)cc(-c3ccc4c(N5CC6CCC(C5)N6)nc(OCC5(CN6CCOCC6)CC5)nc4c3F)c12 |  |  |  |  |  | 11.8 | 99.8 | 15.9 | 3.65 | 6.32 |
| C#Cc1cccc2cc(O)cc(-c3c(SC(F)(F)F)cc4c(N5CC6CCC(C5)N6)nc(OCC5(CN6CCOCC6)CC5)nc4c3F)c12 (single isomer, unassigned) [Compound 59B] |  |  |  |  |  | 40.3 | 94.5 | 12.7 | 5.25 | 25.2 |
| C#Cc1cccc2cc(O)cc(-c3ccc4c(N5CC6CCC(C5)N6)nc(OCC5(CN6CCOCC6)CCC5)nc4c3F)c12 | 6.64 | 462 | > 200 | 429 | 79.9 |  |  |  |  |  |
